SMILES strings stand for the structures.

Data on 4 molecules can be found in patent US12435128B2, “Method for predicting therapeutic effect of LSD1 inhibitor based on expression of INSM1” (TAIHO PHARMACEUTICAL CO., LTD., priority 2017, dated 2025).

What all share (format): cell-based
In test [1] the test system is HEL cells (human acute myelocytic leukemia cell lines). In words: Cell-growth inhibition test: HEL cells. The note with it: read-out: IC50 (nM), Cell-Growth Inhibition Test: HEL Cells. The protocol: (§1) Under the following conditions, an in vitro cell-growth inhibition test was performed with respect to HEL cells (human acute myelocytic leukemia cell lines), NCI-H1417 cells (human small-cell lung cancer cell lines), and NCI-H146 cells (human small-cell lung cancer cell lines).
(§2) The cells with the Example compound or with dimethylsulfoxide alone were cultured at 37° C. in a 5% carbon-dioxide-containing incubator for 5 days (HEL cells) or 10 days (NCI-H1417 cells and NCI-H146 cells). After culture, the plate was allowed to stand at room temperature for 30 minutes, and 100 μL of the supernatant was removed from each well to leave 100 μL of the cell culture solution. To each well containing the remaining 100 μL of the cell culture solution, the same amount of CellTiter-Glo 2.0 Assay (Promega, Cat #: G9242) was added. The microplate was shaken with a plate mixer for 1 minute and then allowed to stand in a dark place for 10 minutes. Thereafter, the luminescence intensity of viable cells in each well was measured using a microplate reader (PerkinElmer, EnSpire). […] Cell growth rate(%)=T/C×100 • T: The luminescence intensity in a well to which the test compound was added (count per second) • C: The luminescence intensity in a well to which dimethylsulfoxide alone was added (count per second)

In test [2] the test system is NCI-H1417 cells (human small-cell lung cancer cell lines). In words: Cell-growth inhibition test: NCI-H1417 cells. The note with it: NCI-H1417, read-out: IC50 (nM), Cell-Growth Inhibition Test: NCI-H1417 Cells. The protocol: as §1, §2
Test [3] deals with NCI-H146 cells (human small-cell lung cancer cell lines). Briefly: Cell-growth inhibition test: NCI-H146 cells. The following applies: NCI-H146, read-out: IC50 (nM), Cell-Growth Inhibition Test: NCI-H146 Cells. The protocol: as §1, §2

As a reminder, the IC50 is the concentration needed to halve the response being measured. `COCCc1ccc(-c2ccc(C(=O)N3[C@H]4CC[C@@H]3[C@H](N)C4)cc2-c2ccc(C#N)c(F)c2)c(F)c1` (relative stereo) [Example 143, 4-[5-[(1S,3R,4R)-rel-3-amino-7-azabicyclo[2.2.1]heptane-7-carbonyl]-2-[2-fluoro-4-(2-methoxyethyl)phenyl]phenyl]-2-fluoro-benzonitrile]: the IC50 in test [1] was found to be 0.06 nM.
With `CC(C)(O)Cc1ccc(-c2ccc(C(=O)N3[C@@H]4CC[C@H]3[C@@H](N)C4)cc2-c2ccc(C#N)c(F)c2)c(F)c1` (relative stereo) [Example 193, 5′-((1S,2S,4R)-rel-2-amino-7-azabicyclo[2.2.1]heptane-7-carbonyl)-2″,3-difluoro-4″-(2-hydroxy-2-methylpropyl)-[1,1′:2′,1″-terphenyl]-4-carbonitrile], the IC50 in test [2] came to 8.66 nM.
For the molecule `CC(C)(O)Cn1nnc2cc(-c3ccc(C(=O)N4[C@H]5CC[C@@H]4[C@H](N)C5)cc3-c3ccc(C#N)c(F)c3)c(F)c(C3CC3)c21` (relative stereo) [Example 278, 5′-((1R,2R,4S)-rel-2-amino-7-azabicyclo[2.2.1]heptane-7-carbonyl)-2′-(7-cyclopropyl-6-fluoro-1-(2-hydroxy-2-methylpropyl)-1H-benzo[d][1,2,3]triazol-5-yl)-3-fluoro-[1,1′-biphenyl]-4-carbonitrile], the IC50 in test [3] was 6.16 nM.
For `Cn1nnc2cc(-c3ccc(C(=O)N4[C@@H]5CC[C@H]4[C@@H](N)C5)cc3-c3ccc(C#N)c(F)c3)c(F)c(F)c21` (single isomer, unassigned; isomer-b) [Example 175], the IC50 in test [2] is 0.8 nM.
